High-throughput results: PubChem BioAssay, Broad Institute
CAL PDZ FP-1 = CAL PDZ (human) peptide binding inhibition | Q9HD26 | purified CAL PDZ, TMR-peptide fluorescence polarization, 1 h | inhibition, % at 24.9 µM | 0.92% of 300,000 active | AID 602252;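 active = mean inhibition of at least 30% with at least half of replicates also reaching 30%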
UUG fidelity = modulators of yeast start codon fidelity, primary screen, whole organism, S. cerevisiae, single point, plate reader; activity score, % at 18.7 µM; actives 0.13% (n = 350,000); S. cerevisiae UUG-firefly luciferase reporter, luminescence/redox ratio;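 active = replicate mean at a twofold rise or more, about +100% in these data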;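 also: firefly luciferase made from a UUG start codon reports start codon fidelity; reporter light over untreated wells divided by growth signal over untreated wells; some hits fall short of that in this replicate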
Vif inh = HIV Vif inhibition | HEK293T cells, Vif self-association by quenched fluorescence, imaging, 24 h | 0.35% of 340,000 active | inhibition, % at 7.49 µM; in the data active = inhibition above about 50%, passing the limit was not always enough
CAL PDZ FP-2 = human CAL PDZ-peptide interaction inhibition. inhibition, % at 20 µM. 0.02% of 330,000 active. Q9HD26. purified CAL PDZ, TMR-peptide fluorescence polarization, 1 h;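 active = highest replicate inhibition of at least 40%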
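Material: tagged CAL PDZ protein CerCALP, purified; buffer or medium: sodium phosphate/NaCl buffer pH 7.4 with TCEP, IgG, Thesit; also added: fluorescent TMR peptide probe; schedule: 1 h incubation at room temperature before polarization reading; technique: fluorescence polarization from S- and P-plane intensities, G-factor corrected; control set: unlabelled peptide and DMSO controls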
PglD inh = inhibitors of Campylobacter jejuni PglD acetyltransferase | purified PglD enzyme, DTNB colorimetric CoA detection | inhibition, % at 12.5 µM | 0.098% of 360,000 active | AID 602405; in the data active = inhibition above about 16%, passing the limit was not always enough
ARNT TACC3 PPI = disruptors of human ARNT/TACC3 interaction; AlphaScreen His-ARNT PAS-B/GST-TACC3 binding, luminescence; TACC3 fragment carries E629A point mutation; inhibition, % at 9.99 µM; 0.66% of 390,000 active; AID 623870;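 active = mean inhibition of replicates at least 50% and at least half of replicates each reaching 50%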
A number is an active result; n = inactive; x = not tested or not shown; + = active, no number. Sampled rows, rich in hits. Any-hit rate of the full collection: about 1.6%.

SMILES	CAL PDZ FP-1	UUG fidelity	Vif inh	CAL PDZ FP-2	PglD inh	ARNT TACC3 PPI
O=C(Nc1nccs1)c1ccccc1N=Cc1ccccc1	59	n	n	n	n	n
CC=Cc1ccc2n(c1=O)C[C@@H]1[C@@H](CO)[C@H](C(=O)NCC)N(C(=O)CC3CC3)[C@H]21 (mixture of isomers)	x	x	x	x	n	n
COc1ccc(CCNC(=O)Cn2c(-c3nonc3N)nc3ccccc32)cc1OC	40	n	n	x	n	n
CCOc1ccc(CCNC(=O)Cn2c(-c3nonc3N)nc3ccccc32)cc1OCC	n	n	x	n	n	n
Cc1cccc(N2CCN(CC3CCCCC3)CC2)c1C	47	n	n	n	n	n
CC(C)NC(=O)NCC[C@@H]1CC[C@H](NC(=O)Nc2ccccc2)[C@H](CO)O1	x	n	x	x	n	n
CCN(Cc1cnn(C)c1)C(=O)C1CCC(=O)N(CCc2ccc(OC)cc2)C1 (stereo not drawn)	86	n	n	n	n	n
O=C(Cn1cc(COc2ccc3ccc(=O)oc3c2)nn1)c1ccc(O)cc1	30	n	n	n	n	n
O=C(Cn1cc(COc2ccc(Br)cc2)nn1)c1ccc(O)cc1	n	n	n	n	n	n
C/C(=N\Nc1ccc(Cl)c(C(=O)O)c1)c1cccc2ccccc12	n	n	65	n	n	n
CCc1ccc(C(=O)NNC(=O)c2c(CC)noc2C)cc1	60	n	n	n	n	n
CCc1noc(C)c1C(=O)NNC(=O)c1ccccc1	x	n	n	n	n	n
O=C(O)c1ccc(/C=C/c2nc3ccccc3c(=O)[nH]2)cc1	+	n	n	n	n	n
O=C/C(=C\Nc1ccccn1)c1nc2cc(Cl)ccc2o1	n	n	61	n	n	x
COC(=O)c1ccc(C(=O)OC)c(NS(C)(=O)=O)c1	n	x	72	n	x	n
COC(=O)c1ccccc1NS(C)(=O)=O	n	n	n	n	n	n
C[C@@H]1CN([C@@H](C)CO)C(=O)Cc2cc(NC(=O)Cc3ccccc3)ccc2O[C@@H]1CN(C)S(=O)(=O)c1cn(C)cn1	x	n	x	x	n	n
O=C(Nc1nccs1)c1ccc(-c2ccc(Cl)cc2)o1	n	n	n	n	n	n
O=C(Nc1nccs1)c1ccc(-c2ccc([N+](=O)[O-])cc2)o1	n	n	80	n	n	n
COc1ccccc1-n1cc(-c2ccc([N+](=O)[O-])cc2)[nH]c1=S	63	n	n	n	n	n
Cc1c(CC(=O)N[C@@H](C)C(=O)O)c(=O)oc2c(C)c3occ(-c4ccccc4)c3cc12	n	n	n	n	n	76
Cc1c(CC(=O)N[C@@H](C)C(=O)O)c(=O)oc2cc3occ(-c4ccccc4)c3cc12	n	x	n	n	x	48
Cc1noc(C)c1NC(=O)N(C)C[C@H]1Oc2c(NC(=O)Nc3ccc(F)cc3)cccc2C(=O)N([C@@H](C)CO)C[C@@H]1C	x	n	x	x	n	n
Cc1c(CCC(=O)O)c(=O)oc2c(C)c(OCc3cc4c(cc3Cl)OCO4)ccc12	95	n	n	n	n	n
Cc1noc(C)c1S(=O)(=O)N(C)C[C@H]1OCCCC[C@@H](C)Oc2ccc(NS(=O)(=O)c3ccc(F)cc3)cc2C(=O)N([C@@H](C)CO)C[C@@H]1C	x	n	x	x	n	n
SMILES	CAL PDZ FP-1	UUG fidelity	Vif inh	CAL PDZ FP-2	PglD inh	ARNT TACC3 PPI
C[C@H]1CCCCO[C@H](CN(C)C(=O)CCC(F)(F)F)[C@@H](C)CN([C@@H](C)CO)C(=O)c2cc(NC(=O)c3ccccc3)ccc2O1	x	n	x	x	n	n
C[C@H](CO)N1C[C@H](C)[C@@H](CN(C)C(=O)Nc2ccccc2)OCCCC[C@H](C)Oc2ccc(NC(=O)c3ccccc3)cc2C1=O	x	n	x	x	n	n
Cc1cc(NC(=O)CC(C)C)c(=O)n(Cc2c(F)cccc2Cl)c1	n	n	n	x	n	n
Cc1cc(NC(=O)CC(C)C)c(=O)n(Cc2ccccc2F)c1	n	n	n	n	n	active
CCCN1C[C@@H](C)[C@H](OC)CN(C)C(=O)c2cc(NC(=O)C3CC3)ccc2OC[C@H]1C	x	n	x	x	n	n
CC(=NNc1nc2ccccc2s1)c1ccncn1	n	x	n	n	x	70
C/C(=N\Nc1nc2ccccc2s1)c1ccc(Br)s1	n	x	n	n	x	x
CCOc1ccc(NC(=S)N(Cc2ccc(N(C)C)cc2)Cc2ccco2)cc1	n	x	n	x	x	17
C[C@H](CO)N1C[C@H](C)[C@@H](CN(C)Cc2ccc(C(=O)O)cc2)OCCCC[C@H](C)Oc2ccc(NC(=O)NC3CCCCC3)cc2C1=O	x	n	x	x	n	n
O=C1/C(=C/c2cccnc2)Oc2cc(OS(=O)(=O)c3ccc(F)cc3)ccc21	n	n	n	x	n	60
Cc1ccc(S(=O)(=O)Oc2ccc3c(c2)O/C(=C\c2cccnc2)C3=O)cc1	n	n	x	n	n	n
CCn1c(C)nc2cc(C(=O)N/N=C/c3cccc(OC)c3O)ccc21	n	x	n	n	x	40
COc1cc([N+](=O)[O-])cc(/C=N/NC(=O)C(O)(c2ccccc2)c2ccccc2)c1O	n	n	n	n	n	n
CCn1c(C)nc2cc(C(=O)N/N=C/c3ccc(O)c(O)c3O)ccc21	n	x	n	n	x	x
CCOc1cc(/C=N/NC(=O)c2cccnc2)ccc1O	n	n	n	n	n	n
COc1cccc(/C=N/Nc2ccccc2C(=O)O)c1O	81	n	n	n	n	n
COc1cc([N+](=O)[O-])cc(/C=N/NC(=O)c2cccnc2)c1O	n	n	n	n	n	73
CCOc1cccc(/C=N/NC(=O)c2cccnc2)c1O	n	n	n	n	n	56
Cc1noc(C)c1S(=O)(=O)Nc1cccc2c1O[C@@H](CN(C)Cc1ccc3c(c1)OCO3)[C@@H](C)CN([C@@H](C)CO)C2=O	x	n	x	x	n	n
C[C@H]1CN([C@@H](C)CO)C(=O)c2cccc(NC(=O)c3ccncc3)c2O[C@@H]1CN(C)Cc1ccccc1	x	n	x	x	n	n
Cc1noc(C)c1S(=O)(=O)Nc1ccc2c(c1)C(=O)N([C@@H](C)CO)C[C@@H](C)[C@@H](CN(C)S(=O)(=O)c1ccc(Cl)cc1)O2	x	n	x	x	n	x
Cc1cc(C(=O)Nc2cccc3c2O[C@@H](CN(C)C(=O)Nc2cccc4ccccc24)[C@@H](C)CN([C@H](C)CO)C3=O)n(C)n1	x	n	x	x	n	n
CCOc1cccc(/C=N/NC(=O)c2cc(C3CC3)[nH]n2)c1O	n	n	n	n	n	71
COc1cccc(C=NNC(=O)c2ccncc2)c1O	x	n	n	n	n	69
COc1cccc(/C=N/NC(=O)N/N=C/c2cccc(OC)c2O)c1O	n	n	n	n	n	n
COc1cc(/C=N/NC(=O)c2cc(C3CC3)[nH]n2)cc(OC)c1OC	n	n	n	n	n	n
CCCC(=O)Nc1ccc2c(c1)OC[C@@H](C)N(C(=O)c1ccncc1)C[C@@H](C)[C@@H](OC)CN(C)C2=O	x	n	x	x	n	n
